This note sets out measurements from patent US11912703B2, “6-azaindole compounds” (BRISTOL-MYERS SQUIBB COMPANY, priority 2017, dated 2024).

The chains behind the UniProt entries cited, without tags or fusion partners. Residues count along the entry.
UniProt Q9NYK1, 27-1049: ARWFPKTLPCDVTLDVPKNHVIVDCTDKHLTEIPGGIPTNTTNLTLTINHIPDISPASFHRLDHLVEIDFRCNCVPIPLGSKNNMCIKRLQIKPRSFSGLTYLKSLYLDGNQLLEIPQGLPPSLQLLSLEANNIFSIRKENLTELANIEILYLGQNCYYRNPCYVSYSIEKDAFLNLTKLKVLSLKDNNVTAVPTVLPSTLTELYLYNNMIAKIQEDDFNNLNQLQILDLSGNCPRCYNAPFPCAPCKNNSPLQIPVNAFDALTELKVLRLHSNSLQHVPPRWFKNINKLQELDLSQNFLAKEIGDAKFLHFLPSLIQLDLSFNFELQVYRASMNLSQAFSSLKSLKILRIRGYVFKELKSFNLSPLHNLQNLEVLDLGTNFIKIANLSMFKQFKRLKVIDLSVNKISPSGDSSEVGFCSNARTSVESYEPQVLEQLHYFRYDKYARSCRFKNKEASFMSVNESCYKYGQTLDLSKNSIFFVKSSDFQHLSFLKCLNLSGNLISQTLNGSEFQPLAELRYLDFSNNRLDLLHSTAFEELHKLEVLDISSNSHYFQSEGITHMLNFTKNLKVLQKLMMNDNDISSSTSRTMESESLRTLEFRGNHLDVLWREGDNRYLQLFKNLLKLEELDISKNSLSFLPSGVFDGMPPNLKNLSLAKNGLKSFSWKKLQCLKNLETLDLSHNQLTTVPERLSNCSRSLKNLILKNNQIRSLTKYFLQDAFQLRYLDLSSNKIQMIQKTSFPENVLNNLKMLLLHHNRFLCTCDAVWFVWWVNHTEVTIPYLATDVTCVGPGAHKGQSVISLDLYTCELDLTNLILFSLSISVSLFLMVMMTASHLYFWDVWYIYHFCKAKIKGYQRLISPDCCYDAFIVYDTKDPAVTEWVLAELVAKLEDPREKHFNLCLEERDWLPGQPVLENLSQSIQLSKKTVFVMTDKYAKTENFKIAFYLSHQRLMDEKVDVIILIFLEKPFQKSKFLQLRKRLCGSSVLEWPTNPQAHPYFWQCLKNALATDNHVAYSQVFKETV

Usually IC50 stands for the concentration that gives 50% inhibition. A higher IC50 goes with weaker potency in that assay.

The target in this assay is human TLR7 (Homo sapiens (Human), UniProt Q9NYK1). Kind of assay: TLR7 inhibition reporter assay (HEK-Blue SEAP). The format is cell-based. The following applies: HEK-Blue cells overexpressing human TLR7, gardiquimod 7.5 μM stimulation. (In general: A reporter such as luciferase makes a cellular process visible.)

Compound `COc1cc(-c2[nH]c3cnc(C4CCC(N5CC(OC)C5)CC4)c(C)c3c2C(C)C)cn2ncnc12` (stereo not shown) [Example 180] gave an IC50 of 1.3 nM.
